In patent US20100130549A1, “PSYCHOTROPIC COMPOUNDS, COMPOSITIONS AND METHODS OF USE” (priority 2007, published 2010):

Test system: BALBc male mice
Assay: Hot plate test
Type: in vivo
Conditions: 10 mg/kg orally (sertraline equimolar); followed for 6 hr
Text: The hot-plate test is widely used to measure pain sensation. The latency in response to heat of mice and rats feet is based on the method described by Eddy et al., Synthetic analgesics. II. Dithienylbutylamines., J. Pharmacol. Exp. Ther. 107(3), 385-393 (1953). The method is based on placing an animal on heated (52-56 C) surface and measuring the time to response (raising paw, licking of the paw, jumping or running.
. The animals were followed for 6 hr. […]. Significant delay in reaction to heating was found at 102 min. and 240 min. for compound Ia and at 120 min. following drug administration.

Which “time after drug administration with significant effect on reaction to heating” value does the source give for CN[C@H]1CC[C@@H](c2ccc(Cl)c(Cl)c2)c2ccccc21 [sertraline, reference compound] here?
Its value is 120 min.
